{"source": "patent US20230293599A1", "about": "“BACTERIAL COMPOSITIONS WITH ANTI-INFLAMMATORY ACTIVITY” (Universiteit Gent, priority 2020, published 2023)", "conditions_in_all_cases": "35 hours, absorbance 590 nm, n = 1; cells without values AUC < 50", "key": {"[1]": {"tested_on": "R. gilardii", "experiment": "Biolog Phenotype Microarray PM1-2 growth on carbon sources", "assay_type": "cell-based, Roseomonas gilardii", "description": "(§1) Using Phenotype Microarray (PM) panels (Biolog), the influence of 190 carbon sources on the growth of the potential probiotic species R. mucilaginosa, R. dentocariosa, R. gilardii, G. haemolysans, and common respiratory pathogens P. aeruginosa, and S. aureus was determined. PM1 and PM2 panels (Biolog) were inoculated according to the manufacturer's instructions. Growth curves were generated for 35 hours by measuring the absorbance at 590 nm using an EnVision (Perkin Elmer) plate reader."}, "[2]": {"tested_on": "P. aeruginosa", "experiment": "Biolog Phenotype Microarray PM1-2 growth on carbon sources", "assay_type": "cell-based, Pseudomonas aeruginosa", "description": "as §1"}, "[3]": {"tested_on": "S. aureus", "assay_type": "cell-based, Staphylococcus aureus", "description": "as §1"}}}
{"smiles": "O=C(O)CCC(=O)C(=O)O", "note": "[α-Keto-Glutaric Acid]", "values": [{"measurement": "AUC of growth curve, R. gilardii", "setting": "[1]", "value": 160.6}, {"measurement": "AUC of growth curve, P. aeruginosa", "setting": "[2]", "value": 555.1}, {"measurement": "AUC of growth curve, S. aureus", "setting": "[3]", "value": 755.7}]}
